## Yeast mating assay B: variants of the scFv Ab-14

The target is the same throughout: PDVDLGDISGINAS, from the HR2 region of SARS-CoV-2 spike.

Parent: Ab-14, a human scFv built as VH, a (GGGGS)3 linker, VL. Only the CDRs of the light chain vary.
VH: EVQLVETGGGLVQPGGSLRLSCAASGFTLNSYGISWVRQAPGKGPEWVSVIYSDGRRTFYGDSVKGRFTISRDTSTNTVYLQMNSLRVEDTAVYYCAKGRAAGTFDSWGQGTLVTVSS
VL: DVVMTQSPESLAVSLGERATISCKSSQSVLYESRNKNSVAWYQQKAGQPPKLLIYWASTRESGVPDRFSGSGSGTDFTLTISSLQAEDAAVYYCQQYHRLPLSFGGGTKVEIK

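The parent was found by panning a naive human phage display library on the peptide. This is the validation round: designs drawn from the data on random variants, tested in the same kind of assay. Group labels follow the data file (Ctrl: baseline library sampled from a position-specific scoring matrix, with some repeated check sequences; En: ensemble of fine-tuned language models; GP: Gaussian process model; HC: hill climbing; Gen: genetic algorithm; Gibbs: Gibbs sampling; a sequence that several methods proposed may carry one label only). Affinity was read by AlphaSeq, a pooled yeast mating assay with surface-displayed partners. After mating in shaken culture at 30 °C for 16 h, diploids were selected and their barcode pairs sequenced. Each replicate has its own calibration line, from reference interactions of the BCL2 family. Mating was done six times.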

The parent's light chain CDRs are KSSQSVLYESRNKNSVA, WASTRES, QQYHRLPLS; each variant's own CDRs replace them letter for letter. Variants here have more than six changes. The Kd shown is the geometric mean over detected replicates; a lower Kd is a better binder. An entry "no signal" has no value in the source: the pair was not observed among the diploids in any replicate. This suggests poor binding but is not conclusive. Order: sorted from the lowest average up, undetected variants last. Empty control strains, which show no peptide, gave a signal in 4% of pairings with all light chain designs; the median was 430 nM and 95% of these signals were weaker than 38 nM. No background was subtracted. For each scFv, signals with the empty controls are counted beside the result.

The variant KLSQMDLYESRMSNSVA | MASTRMV | QQYHRLPLS [GP_Gibbs] showed 470 pM (6 of 6 replicates; controls 0 of 18). The variant KLSQSDLMESRNVNNVA | EASQRES | QQYHRLPLS [GP_Gibbs] gave 520 pM (6 of 6 replicates; controls 2 of 18). The variant KMMQSQLYEDRMSNAVA | NASQRMS | QQYHRLPLS [GP_Gibbs] gave 840 pM (6 of 6 replicates; controls 0 of 18). With KLGSMTAIESRNNNSVA | QMDTRES | QQYDRLPLS [En_HC] the result was 960 pM (6 of 6 replicates; controls 1 of 18). The variant KLGQMTAMESRNLNSVA | QMDTRES | QQYHRLPLS [En_HC] gave 1.1 nM (6 of 6 replicates; controls 2 of 18). The variant KMPQSVWYEQRNKNSVA | NGSTRFS | QQYHRLPLS [GP_Gibbs] showed 1.2 nM (6 of 6 replicates; controls 0 of 18). For KSEQSSWYEDRNKNSVA | NASLRCS | QQYHRLPLS [GP_Gibbs], the assay gave 1.3 nM (6 of 6 replicates; controls 0 of 18). The variant KFSQSNLYEDRMQNPVA | NASQREQ | QQYHRLPLS [GP_Gibbs] showed 1.3 nM (6 of 6 replicates; controls 1 of 18). For KMSQSMLYEQRAFNSVA | NASQRES | QQYHRLPLS [GP_Gibbs], the assay gave 1.5 nM (6 of 6 replicates; controls 0 of 18).

For TVSQVHEMLHRNKNSVA | DANTRES | QQYDRLPLS [En_HC], the assay gave 1.7 nM (6 of 6 replicates; controls 2 of 18). For KLGMSVDYMSATHSSVA | QTSTREE | QQYHRLPLS [En_HC], the assay gave 1.8 nM (6 of 6 replicates; controls 0 of 18). With MISQSFLIGMKAKNSIA | QTSTREE | QQYDRLPLI [En_HC] the result was 1.9 nM (6 of 6 replicates; controls 0 of 18). The variant KLQTDYSIAQKRWSNVA | NADQRES | QQYFRLPIV [En_Gibbs] showed 2.1 nM (6 of 6 replicates; controls 4 of 18). The variant KSEMLVDYKDRNLNSVA | NASTRLS | QQYHRLPLS [GP_Gibbs] showed 2.1 nM (6 of 6 replicates; controls 2 of 18). The variant KFSQSNLYEDRNQNSVA | NASQREQ | QDYHRLPLS [GP_Gibbs] gave 2.2 nM (6 of 6 replicates; controls 1 of 18). The variant MVYQAAMMGGTARNSIA | NAQMRPD | QQYHRLPLI [En_Gen] gave 2.9 nM (6 of 6 replicates; controls 1 of 18). For KLRQSTKYESRNQNSVA | HASTRSS | QQYHRLPLS [GP_HC], the assay gave 6.2 nM (6 of 6 replicates; controls 1 of 18). The variant MMHLCQNGYYQQNNNIA | DMNARMM | QQYGRLPLM [En_Gibbs] gave 6.4 nM (6 of 6 replicates; controls 2 of 18).

The variant KLGDMVHTESRKKNSIA | DMRTRES | QQYYRLPLS [En_HC] showed 7.5 nM (6 of 6 replicates; controls 0 of 18). The variant HVEHAWLLSNATMNSVA | NGACLAD | QQYFRLPLA [En_Gibbs] gave 7.6 nM (6 of 6 replicates; controls 0 of 18). The variant MISQMYNMGSFAINSVA | QASLRNE | QQYDRLPLT [En_Gen] showed 13 nM (6 of 6 replicates; controls 1 of 18). With KWMQSDDQESRNHNSVA | HASTRCS | QQYHRLPLS [GP_Gibbs] the result was 15 nM (6 of 6 replicates; controls 2 of 18). The variant HITYGMYVSGRYKSNIA | QAETRMQ | QQYDRLPLI [En_Gen] gave 16 nM (6 of 6 replicates; controls 1 of 18). With KLWAYFQGLEQYMQNVA | DGSYRST | QQYDRLPLS [En_Gibbs] the result was 16 nM (6 of 6 replicates; controls 1 of 18). For MVSQVMLWGLHAKNSIA | EAQMRLN | QQYDRLPLF [En_Gen], the assay gave 18 nM (1 of 6 replicates; controls 0 of 18). The variant HISMMVGTKGYNKNSVA | NEETRED | QQYHRLPLS [En_HC] gave 22 nM (6 of 6 replicates; controls 3 of 18). With HMSMLTLGGLKERNSVA | QMTTREN | QQYDRLPLS [En_Gen] the result was 28 nM (6 of 6 replicates; controls 0 of 18).

With KSSQSVLYESRWHGSIA | GASTLVS | QQYHRLPLS [Ctrl] the result was 33 nM (6 of 6 replicates; controls 1 of 18). The variant IVSQLMVWGMHAKNSIA | EGETRLN | QQYDRLPLF [En_Gen] gave 39 nM (5 of 6 replicates; controls 0 of 18). For NLMSHQSEYDVWKYSIA | EASIRLS | QQYFRLPLA [En_Gibbs], the assay gave 39 nM (3 of 6 replicates; controls 0 of 18). For MISMLMNMGQFAINSVA | QASIRNS | QQYDRLPLM [En_Gen], the assay gave 39 nM (4 of 6 replicates; controls 0 of 18). The variant KLQNFSQEINGIWNSIA | DETMKHT | QHYDRLPLV [En_Gibbs] gave 42 nM (2 of 6 replicates; controls 1 of 18). With TLMQAGEQEDSENKAIA | DAIIKGV | QQYNRLPLT [En_Gibbs] the result was 45 nM (4 of 6 replicates; controls 1 of 18). The variant NMQLQVRNGNNNKYNIA | AEMKRVY | QQYQRLPLS [En_Gibbs] gave 45 nM (6 of 6 replicates; controls 0 of 18). The variant QMKMSLLQGIYIKDSIA | SSDIREM | QQYEHLPLI [En_Gibbs] showed 53 nM (6 of 6 replicates; controls 0 of 18). The variant NFSMSAATFVNEWSSIA | DAEITYD | QQYHRLPLV [En_Gibbs] showed 58 nM (6 of 6 replicates; controls 0 of 18).

The variant MLSQMWAIGQKVSNSVA | QASMRFN | QQYDRLPLE [En_Gen] showed 58 nM (5 of 6 replicates; controls 1 of 18). For KLQQWHLYGSRMKNSVA | HASQRES | QCYHRLPLS [GP_Gibbs], the assay gave 79 nM (5 of 6 replicates; controls 0 of 18). For TISQLMNMGQFAINSVA | QASIRNE | QQYDRLPLI [En_Gen], the assay gave 150 nM (5 of 6 replicates; controls 1 of 18). For HITYGMQVMGRHMESIA | QAEERAK | QQYDRLPLA [En_Gen], the assay gave 170 nM (6 of 6 replicates; controls 0 of 18). The variant HMSMLTLQGLRHRNSVA | QMTTRVN | QQYDRLPLS [En_Gen] showed 200 nM (5 of 6 replicates; controls 0 of 18). For QIYQAGHTLMQAINNVA | DVTNRNN | QQYHRLPLS [En_Gen], the assay gave 310 nM (4 of 6 replicates; controls 0 of 18). For MLSQMWGLGQKVKNSVA | QASTRFN | QQYERLPLI [En_Gen], the assay gave 320 nM (1 of 6 replicates; controls 0 of 18). With HLGLATMLEEYVRNSVA | NNSTREK | QQYDRLPLS [En_Gen] the result was 470 nM (6 of 6 replicates; controls 1 of 18). For HLGLATMLEEYARNSVA | NNSTREK | QQYDRLPLS [En_Gen], the assay gave 1.2 µM (2 of 6 replicates; controls 2 of 18).

With SLGLATMLEEYARNSVA | NNSTRES | QQYDRLPLS [En_Gen] the result was 20 µM (2 of 6 replicates; controls 3 of 18). With ILAENSDDITEKQNSIA | ETQMVYS | QQYHRLPLA [En_Gibbs] the result was no signal (0 of 6 replicates; controls 0 of 18). The variant MISEAVMYESRNRNSVA | DNSTRED | QCYDRLPLS [En_HC] gave no signal (0 of 6 replicates; controls 0 of 18).

The opening 5 entries, copied out:

With KLSQMDLYESRMSNSVA | MASTRMV | QQYHRLPLS [GP_Gibbs] the result was 470 pM (6 of 6 replicates; controls 0 of 18).
With KLSQSDLMESRNVNNVA | EASQRES | QQYHRLPLS [GP_Gibbs] the result was 520 pM (6 of 6 replicates; controls 2 of 18).
With KMMQSQLYEDRMSNAVA | NASQRMS | QQYHRLPLS [GP_Gibbs] the result was 840 pM (6 of 6 replicates; controls 0 of 18).
With KLGSMTAIESRNNNSVA | QMDTRES | QQYDRLPLS [En_HC] the result was 960 pM (6 of 6 replicates; controls 1 of 18).
With KLGQMTAMESRNLNSVA | QMDTRES | QQYHRLPLS [En_HC] the result was 1.1 nM (6 of 6 replicates; controls 2 of 18).

The range of this assay differs from that of the first round, and the authors advise against merging the two. The authors averaged sequences with at least three values out of six and counted those with two or fewer as poor binders.

Reference: Li et al. 2023, doi:10.1038/s41467-023-39022-2. File: FLAb, binding data.